{
  "source": "patent US20200330467A1",
  "about": "“METHOD AND PHARMACEUTICAL COMPOSITIONS FOR THE TREATMENT OF MULTIPLE MYELOMA” (priority 2016, published 2020)",
  "test_system": "primary myeloma cells from patients",
  "test": "cells",
  "details": "Homo sapiens, 96 h, read-out: reduction of median number of viable myeloma cells",
  "description": "Results are median values of the numbers of myeloma cells in the culture wells.",
  "data": [
    {"smiles": "COc1cc2nc(N3CCCC3)nc(NCCCCCN3CCCC3)c2cc1OC", "note": "[UNC0379]", "values": [
      {"measurement": "cytotoxicity at 1 µM", "result": 19, "unit": "%"},
      {"measurement": "cytotoxicity at 2.5 µM", "result": 57, "unit": "%"},
      {"measurement": "cytotoxicity at 5 µM", "result": 66, "unit": "%"}
    ]}
  ]
}
